Biological target: T1, thromboxane synthetase (Homo sapiens, UniProt P24557)
T1 construct: endogenous in cells; host or cells: human platelets (platelet-rich plasma passed through Sepharose 2B)
T1 sequence (P24557 1-533): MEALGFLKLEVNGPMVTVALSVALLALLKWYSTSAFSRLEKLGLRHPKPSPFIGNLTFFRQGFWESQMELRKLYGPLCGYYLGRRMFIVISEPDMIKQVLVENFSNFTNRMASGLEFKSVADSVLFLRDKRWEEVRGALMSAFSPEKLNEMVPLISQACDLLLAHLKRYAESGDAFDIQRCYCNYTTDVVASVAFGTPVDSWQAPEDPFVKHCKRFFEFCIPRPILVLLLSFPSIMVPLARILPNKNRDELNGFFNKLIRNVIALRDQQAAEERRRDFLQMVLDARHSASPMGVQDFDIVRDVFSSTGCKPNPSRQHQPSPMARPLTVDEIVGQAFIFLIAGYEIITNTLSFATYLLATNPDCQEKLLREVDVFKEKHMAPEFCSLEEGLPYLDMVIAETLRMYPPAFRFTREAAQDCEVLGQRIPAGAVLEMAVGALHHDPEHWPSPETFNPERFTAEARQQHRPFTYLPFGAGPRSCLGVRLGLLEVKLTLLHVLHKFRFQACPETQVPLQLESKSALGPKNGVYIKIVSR
Assay: Inhibitory effect on thromboxane synthetase (TXB2 formation in human platelet suspension)
Assay type: cell-based
Details: 10 minutes at ambient temperature, then 14C-labelled arachidonic acid 10 minutes, read-out: Inhibition of thromboxane synthetase IC50
Experimental: Determining the Inhibitory Effect on Thromboxane Synthetase
Venous human blood is anti-coagulated with 13 mM Na3 citrate and centrifuged for 10 minutes at 170×g. The supernatant platelet-rich plasma is passed through a Sepharose 2B column in order to remove the plasma proteins. Aliquots of the platelet suspension obtained are incubated with the test substance or with a solvent as control for 10 minutes at ambient temperature and after the addition of ^14 C-labelled arachidonic acid incubation is continued for a further 10 minutes. After this has been stopped with 50 μl of citric acid, extraction is carried out 3 times with 500 μl of ethyl acetate and the combined extracts are distilled off with nitrogen. The residue is taken up in ethyl acetate, placed on TLC film and separated with chloro-form:methanol:glacial acetic acid:water (90:8:1:0.8, v/v/v/v). The dried TLC films are placed on X-ray film for 3 days, the autoradiograms were developed and the active zones were marked on the film using the autoradiograms. After cutting out, the activity is measured in a scintillation counter and the inhibition of the formation of TXB2 is calculated. The IC50 is determined by linear interpolation.

CC(C)(C)NC(=NC#N)Nc1cccc(/C(=C\CCCC(=O)O)c2cccnc2)c1 [B, 5E-6-(3-(2-cyano-3-tert.butyl-guanidino)phenyl)-6-(3-pyridyl)hex-5-enoic acid]
IC50: 4 nM
